# Curated experimental data: water solubility values

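These are experimental values that the OPERA curators gathered from public databases to train and test their QSAR models. A listed value is a point estimate from one report or more. Method and conditions are not stated for these values. Where a salt, mixture or single isomer is drawn, the source does not say that exactly this form was tested. Some upstream entries may be estimates or bounds without being marked so.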

Water solubility is log10 of mol/L, nominally at 25 °C; higher is more soluble.
"n/a" marks a cell with nothing listed here.

SMILES,name,log S (log10 mol/L)
CN(C)C(=O)NCC1(C)CC(NC(=O)N(C)C)CC(C)(C)C1 (centres undefined),n/a,-1.894
Fc1ccc(Br)cc1,1-Bromo-4-fluorobenzene,-2.956
Cc1cc2cccc(O)c2nc1C,"2,3-Dimethylquinoline-8-ol",-1.319
CC(C)(C)C(=O)OCOP(=O)(COCCn1cnc2c(N)ncnc21)OCOC(=O)C(C)(C)C,Adefovir dipivoxil,-2.899
O=S1(=O)CC(Cl)C(Cl)C1 (centres undefined),"3,4-Dichlorosulfolane",-1.93
CCCCCCCCCC=O,Decanal,-3.726
CCCCC(CC)COCCCNS(=O)(=O)c1ccc2c(c1)-c1nc-2nc2[n-]c(nc3nc(nc4[n-]c(n1)c1ccc(S(=O)(=O)NCCCOCC(CC)CCCC)cc41)-c1ccccc1-3)c1cccc(S(=O)(=O)NCCCOCC(CC)CCCC)c21.[Cu+2] (centres undefined),n/a,-4.821
N=C(NN)c1ncnc2[nH]cnc12,1H-Purine-6-carboximidohydrazide,-2.753
NC(=S)N/N=C/C=C/c1ccc([N+](=O)[O-])o1,[[3-(5-Nitrofuran-2-yl)prop-2-en-1-ylidene]amino]thiourea,-3.933
Cc1ccc(Cl)cc1N=Nc1c(O)c(C(=O)Nc2cc(C)c(NC(=O)c3cc4ccccc4c(N=Nc4cc(Cl)ccc4C)c3O)cc2C)cc2ccccc12,n/a,-7.678
COc1ccc(CCC(C)=O)cc1,4-(4-Methoxyphenyl)-2-butanone,-1.919
CCCCC1OC(C)CC(C)(C)O1 (centres undefined),"2-Butyl-4,4,6-trimethyl-1,3-dioxane",-2.453
CC(=O)Nc1cccc(Cl)c1,"Acetamide, N-(3-chlorophenyl)-",-2.28
Nc1ccc2cc(S(=O)(=O)[O-])cc(O)c2c1/N=N/c1ccccc1C(F)(F)F.[Na+],Acid Red 337,-2.069
COc1cc2c(cc1OC)C(C#N)C2 (centres undefined),n/a,-2.357
CCC(O)(CC)C(O)CC(C)C (centres undefined),"3-ethyl-6-methylheptane-3,4-diol",-1.598
Nc1ccc(Nc2ccccc2)cc1,"N-Phenyl-1,4-benzenediamine",-2.565
CC(C)=CCCC(C)CCO (centres undefined),Citronellol,-2.712
CC(=O)OC1CCC2CCCCC2C1 (centres undefined),Decahydro-2-naphthyl acetate,-3.56
NC(CC1CCC(O)CC1)C(=O)O (centres undefined),2-Amino-3-(4-hydroxycyclohexyl)propanoic acid,-0.353
CC(=O)c1cc2ccccc2o1,"Ethanone, 1-(2-benzofuranyl)-",-2.548
C=C(C)[C@H]1CC[C@H](C)C(=O)C1,n/a,-2.18
Nc1cc([N+](=O)[O-])cc(Cl)c1O,2-Amino-6-chloro-4-nitrophenol,-2.622
Brc1cnc2[nH]ccc2c1,5-Bromo-7-azaindole,-3.523
Clc1cc(Cl)c(Oc2ccc(Cl)c(Cl)c2Cl)cc1Cl,"2,2',3,4,4',5'-Hexachlorodiphenylether",-8.31
CCCCCCCCC=CCCCCCCCC(=O)OC(C)C,n/a,-6.335
CCCCCCCCC1CCC(=O)O1 (centres undefined),gamma-Dodecalactone,-3.519
O=C(Nc1cccc([N+](=O)[O-])c1)c1cc2ccccc2cc1O,3-Hydroxy-N-(3-nitrophenyl)naphthalene-2-carboxamide,-6.644
NNc1nncc2ccccc12,Hydralazine,-1.996
COc1cc2[nH]c(=O)c(=O)[nH]c2cc1N,"6-Amino-1,4-dihydro-7-methoxy-2,3-quinoxalinedione",-3.029
CCCc1ccc(O)c(OC)c1,2-Methoxy-4-propylphenol,-2.179
CCN(CC)CCNc1ccc(C)c2sc3ccccc3c(=O)c12,Lucanthone,-5.034
Cc1ccc(S(=O)(=O)OCCc2cccs2)cc1,2-(2-Thienyl)ethyl toluene-p-sulphonate,-4.398
O=C(O)COc1cccc(OCC(=O)O)c1OCC(=O)O,"2,2',2''-[Benzene-1,2,3-triyltris(oxy)]triacetic acid",-1.363
Cc1ccc(N=Nc2c(N)nc(N)nc2O)c(S(=O)(=O)O)c1,n/a,-5.596
CC(=CC(C)C)C(C)OC(C)(C)COC(=O)C1CC1 (centres undefined),n/a,-4.283
Nc1c(Cl)c(Cl)cc(Cl)c1Cl,n/a,-4.38
COc1ccccc1N=Nc1c(O)ccc2ccccc12,Solvent Red 1,-8.932
O=C(O[C@H]1[C@@H]2C=CO[C@@H](O[C@@H]3O[C@H](CO)[C@@H](O)[C@H](O)[C@H]3O)[C@@H]2[C@@]2(CO)O[C@@H]12)c1ccc(O)cc1,n/a,-1.927
CCOc1ccccc1C=O,"Benzaldehyde, 2-ethoxy-",-2.112
CC(C)(C)c1ccc(OCC2CO2)cc1 (centres undefined),tert-Butyl phenyl glycidyl ether,-3.43
C=C(c1ccc(C(=O)O)cc1)c1cc2c(cc1C)C(C)(C)CCC2(C)C,Bexarotene,-6.369
Cc1ccccc1NC(=O)c1cc2ccccc2c(N=Nc2cc(Cl)c(Cl)cc2Cl)c1O,C.I. Pigment Red 112,-7.694
NC(=O)c1ccccc1C(F)(F)F,2-Trifluoromethylbenzamide,-1.16
CO/N=C(\C(=O)N[C@@H]1C(=O)N2C(C(=O)O)=CCS[C@H]12)c1csc(N)n1,Ceftizoxime,-3.224
COC(=O)[C@@H]1CCC[C@H](C)C1 (relative stereo),n/a,-2.624
CC12CCC(c3cnc(NS(=O)(=O)c4ccc(N)cc4)nc31)C2(C)C (centres undefined),n/a,-4.077
O=C(O)c1cc(Br)nn1-c1ncccc1Cl,n/a,-1.784
CC(C)c1ccc(Cl)cc1Br,2-Bromo-4-chloro-1-(1-methylethyl)benzene,-5.222
C[C@H](CCC(=O)O)[C@H]1CC[C@H]2[C@@H]3[C@H](O)[C@H](O)[C@@H]4C[C@H](O)CC[C@]4(C)[C@H]3CC[C@]12C,Hyocholic acid,-4.346
CC(C(=O)O)c1ccc2c(c1)[nH]c1ccc(Cl)cc12 (centres undefined),Carprofen,-4.859
C=C(C)C(=O)OCCOCCOc1ccc(C(=O)c2ccccc2)cc1,2-[2-(4-Benzoylphenoxy)ethoxy]ethyl methacrylate,-4.392
O=C(O)C(O)Cc1ccc(O)cc1 (centres undefined),2-Hydroxy-3-(4-hydroxyphenyl)propanoic acid,-1.15
CCN(CC)c1ccc2cc3c(oc2c1)c(C#N)c(=N)n1c2ccccc2nc31,n/a,-7.54
CCC(C)NC(N)=S (centres undefined),sec-Butyl-thiourea,-1.139

Extract of 8 entries:

| SMILES | name | log S (log10 mol/L) |
|---|---|---|
| CCCCCCCCC1CCC(=O)O1 (centres undefined) | gamma-Dodecalactone | -3.519 |
| COc1cc2c(cc1OC)C(C#N)C2 (centres undefined) | n/a | -2.357 |
| O=C(O)COc1cccc(OCC(=O)O)c1OCC(=O)O | 2,2',2''-[Benzene-1,2,3-triyltris(oxy)]triacetic acid | -1.363 |
| COc1ccccc1N=Nc1c(O)ccc2ccccc12 | Solvent Red 1 | -8.932 |
| COc1ccc(CCC(C)=O)cc1 | 4-(4-Methoxyphenyl)-2-butanone | -1.919 |
| CCCCC1OC(C)CC(C)(C)O1 (centres undefined) | 2-Butyl-4,4,6-trimethyl-1,3-dioxane | -2.453 |
| CCC(C)NC(N)=S (centres undefined) | sec-Butyl-thiourea | -1.139 |
| NNc1nncc2ccccc12 | Hydralazine | -1.996 |

Source: data files of OPERA 2.9 (Mansouri et al.), github.com/kmansouri/OPERA.